B1: HB2198 (bispecific antibody, human IgG1, kappa)
heavy 1: QVQLVQSGGGVVQPGRSLRLSCAASGVSLPDYGVSWVRKAPGKGLEWVAVIWGSETTYYNSALKSRFTISRDNSKNTLYLQMSSLRAEDTAVYYCAKHYYYGGSFAMDYWGQGTLVTVSSASTKGPSVFPLAPSSKSTSGGTAALGCLVKDYFPEPVTVSWNSGALTSGVHTFPAVLQSSGLYSLESVVTVPSSSLGTQTYICNVNHKPSNTKVDKKVEPKSCTDWSPYADQSIKVRISLKSALGDKAYEWNDNEMYLFRSSVAYAMRQYFLKVKNQMILFGEEDVRVANLKPRISFNFFVTAPKNVSDIIPRTEVEKAIRMSRSRINDAFRLNDNSLEFLGIQPTLGPPNQPPVSTSTSPTRSMAPGAVHLPQPVSTRDKTHTCPPCPAPELLGGPDVFLFPPKPKDTLMISRTPEVTCVVVDVSHEDPEVKFNWYVDGVEVHNAKTKPREEQYNSTYRVVSVLTVLHQDWLNGKEYKCKVSNKALPAPEEKTISKAKGQPREPQVCTLPPSRDELTKNQVSLSCAVKGFYPSDIAVEWESNGQPENNYKTTPPVLDSDGSFFLVSKLTVDKSRWQQGNVFSCSVMHEALHNRFTQKSLSLSPG
heavy 2: QIVLSQSPAILSASPGEKVTMTCRASSSVSYIHWFQKKPGSSPKPWIYATSNLASGVPVRFSGSGSGTSYSLTISRVEAEDAATYYCQQWTSNPPTFGGGTKVEIKSSASTKGPSVFPLAPSSKSTSGGTAALGCLVKDYFPEPVTVSWNSGALTSGVHTFPAVLQSSGLYSLKSVVTVPSSSLGTQTYICNVNHKPSNTKVDKKVEPKSCDKTHTCPPCPAPELLGGPDVFLFPPKPKDTLMISRTPEVTCVVVDVSHEDPEVKFNWYVDGVEVHNAKTKPREEQYNSTYRVVSVLTVLHQDWLNGKEYKCKVSNKALPAPEEKTISKAKGQPREPQVYTLPPCRDELTKNQVSLWCLVKGFYPSDIAVEWESNGQPENNYKTTPPVLDSDGSFFLYSKLTVDKSRWQQGNVFSCSVMHEALHNHYTQKSLSLSPG
light 1: DIQMTQSPSSLSASVGDRVTITCRASQDISKYLNWYQEKPGKAIKLLIYHTSRLHSGVPSRFSGSGSGTDFTLTISSLQPEDFATYYCQQGATLPYTFGPGTKLEIKRTVAAPSVFIFPPSDEQLKSGTASVKCLLNNFYPREAKVQWKVDNALQSGNSQESVTEQDSKDSTYSLSSTLTLSKADYEKHKVYACEVTHQGLSSPVTKSFNRGEC
light 2: QVQLQQPGAELVKPGASVKMSCKASGYTFTSYNMHWVKETPGRGLEWIGAIYPGNGDTSYNQKFKGKATLTADKSSSTAYMQLSSLTSEDSAVYYCARSTYYGGDWYFNVWGAGTLVTVSSASVAAPSVFIFPPSDEQLKSGTASVECLLNNFYPREAKVQWKVDNALQSGNSQESVTEQDSKDSTYSLSSTLTLSKADYEKHKVYACEVTHQGLSSPVTKSFNRGEC
notes: also called HB2198 (S239D/I332E)
B2: Tafasitamab (antibody, human IgG1, kappa)
heavy: EVQLVESGGGLVKPGGSLKLSCAASGYTFTSYVMHWVRQAPGKGLEWIGYINPYNDGTKYNEKFQGRVTISSDKSISTAYMELSSLRSEDTAMYYCARGTYYYGTRVFDYWGQGTLVTVSSASTKGPSVFPLAPSSKSTSGGTAALGCLVKDYFPEPVTVSWNSGALTSGVHTFPAVLQSSGLYSLSSVVTVPSSSLGTQTYICNVNHKPSNTKVDKKVEPKSCDKTHTCPPCPAPELLGGPDVFLFPPKPKDTLMISRTPEVTCVVVDVSHEDPEVQFNWYVDGVEVHNAKTKPREEQFNSTFRVVSVLTVVHQDWLNGKEYKCKVSNKALPAPEEKTISKTKGQPREPQVYTLPPSREEMTKNQVSLTCLVKGFYPSDIAVEWESNGQPENNYKTTPPMLDSDGSFFLYSKLTVDKSRWQQGNVFSCSVMHEALHNHYTQKSLSLSPG
light: not shown
notes: also called Tafasitamab-cxix; Tafasitamab-S239D/I332E

Biological target: T1, cynomolgus monkey CD64 (cynomolgus monkey, UniProt A0A2K5U901 33-309)
T1 construct: also called Cynomolgus FcγR CD64
Test: immobilized cynomolgus FcgR (bivalent format)

Row | Binder | fold vs MabThera [fold]
1 | B1 | > 515
2 | B2 | 5.7

From patent US20250179183A1 (BIOMOLECULAR, published 2025)
